Legend:
[1] = system: healthy, non-dependent, opioid-experienced recreational drug users; conditions: Example 1
[2] = all treatments
[3] = system: healthy, non-dependent, opioid-experienced recreational drug users; conditions: HMO 30 μg/kg IV
[4] = system: opioid dependent drug users; conditions: Example 2

## CN1CC[C@]23c4c5ccc(O)c4O[C@H]2C(=O)CC[C@H]3[C@H]1C5 [HMO, Hydromorphone]
[1]
  Incidence of blurred vision: 10.0%
  Incidence of euphoric mood (TEAE): 73.3%
  Incidence of feeling hot: 46.7%
  Incidence of pruritus: 40.0%
  Incidence of somnolence: 60.0%
  Incidence of vomiting: 13.3%
[2]
  V of HMO: 350 to 375 L
[3]
  Duration of sustained decrease in pupil diameter (miosis): approximately 1 hour
  MPC: 3.05 mm
[3]; post-infusion
  Time of mean peak decrease in pupil diameter: approximately 0.75 hours
[4]
  Incidence of TEAEs: 77.8%
  Incidence of euphoric mood: 33.3%
  Incidence of feeling hot: 22.2%
  Incidence of pruritus: 11.1%
